Measured values as given in ChEMBL document CHEMBL1143180, “Imidazolyl benzimidazoles and imidazo[4,5-b]pyridines as potent p38alpha MAP kinase inhibitors with excellent in vivo antiinflammatory properties” (Bioorg Med Chem Lett, 2008).

By UniProt entry, the sequences of proteins in these tests, tags left out.
UniProt Q16539, whole entry: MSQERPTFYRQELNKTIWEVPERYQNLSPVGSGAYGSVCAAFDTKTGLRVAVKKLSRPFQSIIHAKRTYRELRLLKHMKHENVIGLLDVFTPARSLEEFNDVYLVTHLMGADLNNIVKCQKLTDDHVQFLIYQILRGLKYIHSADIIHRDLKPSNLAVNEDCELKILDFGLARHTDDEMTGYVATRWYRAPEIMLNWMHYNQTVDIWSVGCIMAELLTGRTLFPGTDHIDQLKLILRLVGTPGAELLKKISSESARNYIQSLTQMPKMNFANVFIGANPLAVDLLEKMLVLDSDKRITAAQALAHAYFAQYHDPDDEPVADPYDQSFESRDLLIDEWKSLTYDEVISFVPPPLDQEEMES

Biological target: Mitogen-activated protein kinase 14 (Homo sapiens, UniProt Q16539)
Assay: Inhibition of human recombinant p38alpha

IC50: 2.3 nM
SMILES: CC(C)(C)Cn1cnc2ccc(-c3[nH]c(C(C)(C)C)nc3-c3ccc(F)cc3F)nc21
